Read-outs that look alike come from different tables or passages of the source.
What was measured:
[1] = in vivo
[2] = in vivo

With COCC(O)Cn1ccnc1[N+](=O)[O-] (centres unmarked) [Misonidazole, 1-(2-Nitro-1-imidazolyl)-3-methoxy-2-propanol] the LD50 [1] was 1500 mg/kg and the LD50 [2] was 1500 mg/kg.
